# Results published in patent publication US20190218531A1 (priority 2018, published 2019).
# This is a selection: effects in other tests are not listed, and their absence says nothing.
# Experiments:
# [1] = test system: S. elongatus CscB+ cells; assay: Toxicity of 2,4-DNT to planktonic (non-encapsulated) S. elongatus CscB+ cultures
# Description: FIG. 13A-13K illustrates that encapsulated S. elongatus CscB+ cells are more tolerant of the toxin dinitrotoluene (DNT) than non-encapsulated S. elongatus CscB+ cells and that co-cultures of these two species can degrade DNT (e.g., 2,4-DNT). FIG. 13A graphically illustrates the growth of non-encapsulated S. elongatus CscB+ cells at different levels of 2.4-DNT when grown in suspension as measured by absorption (OD750). As illustrated, low concentrations of DNT slow the growth rate of the S. elongatus CscB+ cells. FIG. 13B graphically illustrates the viability of non-encapsulated S. elongatus CscB+ cells at different levels of DNT when grown in suspension as measured by extracted chlorophyll a concentrations (Chla μg/ml). As illustrated, concentrations of DNT greater than 0.03 mM led to chlorosis of S. elongatus CscB+ cells, as measured by extracted chlorophyll a. FIG. 13C illustrates encapsulation of S. elongatus CscB+ cells in alginate hydrogel beads. S. elongatus CscB+ cells are viable inside these hydrogels for long time periods (e.g., more than 5 months, see, e.g., FIG. 10). FIG. 13D graphically illustrates that Ba-alginate encapsulated S. elongatus CscB+ cells are resistant to much higher concentrations of 2,4-DNT (at least 0.25 mM) than non-encapsulated S. elongatus CscB+ cells (about 0.03 mM), as evaluated by chlorophyll extraction from beads after 7 days of 2,4-DNT exposure (compare to FIG. 13B). […] FIG. 13F illustrates an example of a dnt expression cassette, referred to as pSEVA221-cscRABY. FIG. 13G illustrates the enzymes and products in the Dnt-mediated dinitrotoluene breakdown pathway. FIG. 13H graphically illustrates degradation of 2,4-DNT by engineered P. putida strains bearing the heterologous pathway (P. putida-EM-DNT-S) shown in FIGS. 13F and 13G. […]
# Preliminary toxicity assays of planktonic (i.e., free-floating) cultures of S. elongatus cyanobacteria were monitored in the presence of increasing 2.4-DNT.
# [2] = test system: encapsulated S. elongatus CscB+ cells; assay: 2,4-DNT exposure of Ba-alginate encapsulated S. elongatus CscB+ cells
# Description: FIG. 13A-13K illustrates that encapsulated S. elongatus CscB+ cells are more tolerant of the toxin dinitrotoluene (DNT) than non-encapsulated S. elongatus CscB+ cells and that co-cultures of these two species can degrade DNT (e.g., 2,4-DNT). FIG. 13A graphically illustrates the growth of non-encapsulated S. elongatus CscB+ cells at different levels of 2.4-DNT when grown in suspension as measured by absorption (OD750). As illustrated, low concentrations of DNT slow the growth rate of the S. elongatus CscB+ cells. FIG. 13B graphically illustrates the viability of non-encapsulated S. elongatus CscB+ cells at different levels of DNT when grown in suspension as measured by extracted chlorophyll a concentrations (Chla μg/ml). As illustrated, concentrations of DNT greater than 0.03 mM led to chlorosis of S. elongatus CscB+ cells, as measured by extracted chlorophyll a. FIG. 13C illustrates encapsulation of S. elongatus CscB+ cells in alginate hydrogel beads. […] FIG. 13D graphically illustrates that Ba-alginate encapsulated S. elongatus CscB+ cells are resistant to much higher concentrations of 2,4-DNT (at least 0.25 mM) than non-encapsulated S. elongatus CscB+ cells (about 0.03 mM), as evaluated by chlorophyll extraction from beads after 7 days of 2,4-DNT exposure (compare to FIG. 13B). […]
structure (smiles),measurement,setting,value
Cc1ccc([N+](=O)[O-])cc1[N+](=O)[O-],"2,4-DNT concentration to which cells are resistant","[1]; non-encapsulated cells, chlorophyll, compare FIG. 13B",about 0.03 mM
same,"2,4-DNT concentration at which cells exhibited bleaching phenotypes indicative of severe stress and/or cell death","[1]; planktonic cells, extracted chlorophyll a, FIG. 13B",higher than 0.03 mM
same,"2,4-DNT concentration at which growth of S. elongatus was severely inhibited","[1]; planktonic, exponentially growing cells, OD750, FIG. 13A",> 0.008 mM
same,"2,4-DNT concentration to which cells are resistant","[2]; Ba-alginate encapsulated, chlorophyll extraction from beads after 7 days of exposure, FIG. 13D",at least 0.25 mM
same,"sucrose export of encapsulated cells exposed to 2,4-DNT relative to unexposed encapsulated control","[2]; measured over 24 hours, FIG. 13E",comparable rates
